# Binding of CDR-mutated scFvs to a peptide of the spike HR2 region

Data: MIT Lincoln Laboratory AlphaSeq set, Li et al. 2023, doi:10.1038/s41467-023-39022-2, as distributed in FLAb.

All variants were tested on one target, the spike HR2 peptide PDVDLGDISGINAS (SARS-CoV-2).

Each scFv is VH, three GGGGS repeats, VL, as in the parent Ab-14, and differs from it in the CDRs of the light chain only.
VH: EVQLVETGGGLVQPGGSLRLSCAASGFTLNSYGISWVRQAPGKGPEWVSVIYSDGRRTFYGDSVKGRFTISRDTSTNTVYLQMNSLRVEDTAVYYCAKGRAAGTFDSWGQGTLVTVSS
VL: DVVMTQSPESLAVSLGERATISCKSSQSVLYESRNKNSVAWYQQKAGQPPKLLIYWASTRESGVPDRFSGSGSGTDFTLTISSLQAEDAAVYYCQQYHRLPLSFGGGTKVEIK

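The starting antibody came from a phage panning campaign against this peptide. This is the validation round: designs drawn from the data on random variants, tested in the same kind of assay. Their group label is 14L_En_HC (En: ensemble of fine-tuned language models; HC: hill climbing; a sequence that several methods proposed may carry one label only). The assay is AlphaSeq: two haploid yeast populations carry antibody and antigen on their surface. Binding brings cells together so that they mate, and sequencing counts the barcode pairs among the diploids. A regression on co-assayed BCL2-family reference pairs converts the normalised counts of each replicate to an apparent Kd. Mating was done six times.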

Variants are written as CDR1, CDR2 and CDR3 of the light chain (limits as in the source). Parent: KSSQSVLYESRNKNSVA, WASTRES, QQYHRLPLS.
Scale: log10 of Kd in nM, estimated from mating counts; low values are strong binders.
A pair that was not seen in that replicate is written "nd"; this usually means weak binding, but a binder can also be missed.

| CDR-L1 | CDR-L2 | CDR-L3 | log10 Kd (nM) by replicate | signal with controls |
|---|---|---|---|---|
| HISDLIMVAYRNKNSVA | DESTRPD | QQYHRLPLS | 0.21 0.91 0.51 0.09 0.26 0.42 | 0/18 |
| HLAQSTDLESVHKNSIA | DLMTRES | QQYHRLPLS | 0.38 0.20 0.12 0.13 0.40 0.38 | 4/18 (2.72) |
| KIGGVTNGISRNKNSVA | EQETRED | QQYNRLPLS | 0.80 0.47 0.04 0.26 0.76 0.62 | 0/18 |
| KISMLSRYESQAKNSIA | EMSRREN | QQYHRLPLS | 0.78 0.74 1.17 0.22 0.09 0.81 | 1/18 (2.16) |
| KIGLVTNGISFSKNSVA | EQSTRED | QQYDRLPLA | nd 2.53 nd 1.97 nd 2.31 | 0/18 |
| TLVQSVMSGGRTKNSVA | NAETRYD | QHYHRLPLS | 0.51 1.11 0.45 1.11 0.57 0.58 | 0/18 |
| TLGDVTRMESNKKSSIA | DMSNRAQ | QQYHRLPIS | 0.56 0.13 0.23 0.03 0.18 0.51 | 2/18 (3.66) |
| KLRQMTHIESFNKNNVA | EMTTRES | QSYDRLPLS | 1.63 1.50 0.94 1.31 1.28 1.23 | 2/18 (2.51) |
| TISQSAYQESHNKNSVA | DLSVRGS | QQYHRLPLS | 0.10 0.21 -0.02 0.03 0.02 0.13 | 2/18 (3.23) |
| NFSQMVLTGSTLKNSVA | HAMTREE | QQYHRLPLI | 0.93 0.48 0.71 0.50 0.31 1.38 | 1/18 (2.82) |
| MLLQSTMYGEKNRNSVA | HASTRED | QQYHRLPLI | 1.04 0.90 0.70 0.81 1.10 0.64 | 0/18 |
| KVYEMMAFLSSNRNNVA | DNSTRGS | QQYHRLPLS | 0.64 0.73 0.42 0.75 0.81 0.59 | 1/18 (1.85) |
| MMSMGSLTGMRARNNVA | QEETREK | QQYHRLPLI | nd nd nd nd nd nd | 0/18 |
| MFSQSVMYGSFMRNSVA | QTSTRED | QQYDRLPLS | 0.99 0.78 1.02 0.83 1.23 1.04 | 1/18 (2.72) |
| KLSMSMLMESRHVNSVA | ENSTRES | QHYHRLPLS | nd 2.35 nd nd 3.61 nd | 0/18 |
| NSSGQGMFESRNKNSVA | HASTREE | QQYERLPLS | 0.31 -0.06 -0.06 0.10 0.01 0.35 | 1/18 (1.93) |
| KLLQSVNYGSRAMNSVA | QMETRED | QQYHRLPLS | nd nd nd nd nd nd | 0/18 |
| KLLQTVRNGRYNRNNVA | HMTMRED | QQYFRLPLS | 1.59 nd 1.86 2.33 2.59 1.94 | 0/18 |
| QLGDVTRMESNKKNSIA | DMSTRES | QQYHRLPLS | 0.48 0.04 0.30 0.45 0.28 0.50 | 0/18 |
| KLMQVTGYESYLRNSVA | QMSTRAE | QDYHRLPLS | 0.39 0.29 0.06 0.32 0.54 0.23 | 0/18 |
| TISYSAQMTGLNRNSVA | QAEERLE | QQYHRLPLS | 0.69 0.82 0.63 0.77 0.58 0.94 | 1/18 (2.78) |
| MISQLFEGLSTSKNPVA | QVSTREE | QQYHRLPLS | 1.45 1.17 1.69 1.53 1.60 2.13 | 0/18 |
| KISMVLNKESKAGNNVA | EMVNRES | QQYDRLPLS | 0.96 1.04 0.57 0.72 0.67 0.78 | 2/18 (2.95) |
| MFSQLVYTGSRTKNAVA | QASTREN | QQYHHLPLS | 1.30 1.03 1.26 1.18 1.30 1.08 | 1/18 (2.45) |
| MLLQSTMYGERNRNSVA | HASTREN | QQYHRLPLI | 0.82 0.98 1.22 0.69 1.07 0.76 | 1/18 (2.92) |
| KLGQSVNYLSRVMNSVA | DNSTRES | QQYFRLPLS | -0.32 -0.37 -0.60 -0.98 -0.56 -0.20 | 0/18 |
| KLGGMTAIESRNLNSVA | QMDTRES | QQYHRLPLS | 0.28 0.66 -0.02 0.05 0.17 0.46 | 0/18 |
| KISMSMLLESFHKNSVA | ENSTREE | QHYHRLPLS | nd nd nd nd nd nd | 0/18 |
| KFGQSVLMGSYVRNSVA | QQSTREN | QQYDRLPLS | 1.48 0.86 1.21 0.80 0.76 1.22 | 1/18 (2.04) |
| TLTQVQGMETHNKNSVA | DLSTRGS | QQYHRLPLS | 0.36 -0.07 0.40 -0.18 -0.03 0.37 | 1/18 (2.76) |
| KLGSTVGYESRNKSRVA | DNSTRES | QQYDRLPLS | nd 1.98 nd nd 2.91 nd | 0/18 |
| KLRQVTGYEMYNKDSVA | QTSTRVN | QDYHRLPLS | 0.85 1.01 0.72 0.57 0.59 0.90 | 1/18 (3.03) |
| KISQMSTIESITHNSVA | QTSTREN | QQYDRLPLS | 0.90 0.74 0.51 0.57 0.80 0.88 | 0/18 |
| KLRTMTLTEGYFKNSVA | QASTREN | QSYHRLPLS | 0.58 0.89 0.80 0.78 0.48 0.97 | 0/18 |
| KLLQTVMNETLNRNNVA | HMTTRED | QQYHRLPLS | 0.78 1.32 0.73 0.25 1.09 0.53 | 1/18 (2.47) |
| HVSEMIFAQSKMRNSVA | ENSTRES | QQYDRLPLS | 1.58 3.12 1.46 2.72 2.41 1.99 | 1/18 (2.29) |
| KIGSGTNGEKFQSNSVA | QTSTREE | QQYHRLPLS | 0.62 0.51 0.15 0.21 0.46 0.38 | 2/18 (2.57) |
| KLGSMVMLEYGNKNSIA | QQSTREE | QQYDRLPLS | 0.70 0.82 0.89 0.80 1.42 1.05 | 1/18 (2.85) |

Again, the first 3 entries without any signal:

| CDR-L1 | CDR-L2 | CDR-L3 | log10 Kd (nM) by replicate | signal with controls |
|---|---|---|---|---|
| MMSMGSLTGMRARNNVA | QEETREK | QQYHRLPLI | nd nd nd nd nd nd | 0/18 |
| KLLQSVNYGSRAMNSVA | QMETRED | QQYHRLPLS | nd nd nd nd nd nd | 0/18 |
| KISMSMLLESFHKNSVA | ENSTREE | QHYHRLPLS | nd nd nd nd nd nd | 0/18 |

The parent sequence was in this pool as ten entries: three were never detected, three once, and four in most replicates, with averages from 0.34 to 2.37.
A sequence measured in both rounds can read differently, since the two assays cover different ranges.
Empty control strains, which show no peptide, gave a signal in 4% of pairings with all light chain designs; the median was 2.64 and 95% of these signals were weaker than 1.59. No background was subtracted. For each scFv, signals with the empty controls are counted beside the result, with their mean in brackets.
The authors' rule: three or more of the six replicates give a measured affinity, fewer mean a poor binder.